{
  "source": "patent US20090319044A1",
  "about": "“Methods and Compositions for Improving the Incorporation of Orthopaedic and Orthodontic Implants” (priority 2006, published 2009)",
  "test_system": "RAW 264.7 mouse macrophage-like cells (osteoclast precursors)",
  "assay": "Cell death assay (annexin V-FITC / propidium iodide flow cytometry)",
  "format": "cell-based",
  "conditions": "30-50 μM zoledronate; RAW 264.7 vs MC3T3 cells",
  "procedure": "A preliminary study was performed to determine an optimal concentration range of zoledronate for effectively reducing the pre-osteoclast population, while simultaneously having a less harmful effect on osteoblasts. Cell death assays were conducted using mouse osteoblasts and osteoclast precursor cells at different concentrations of zoledronate (Bedford Laboratories, OH).\nMC3T3 cells, which are well-established mouse calvarial cells of osteoblastic lineage, and RAW 264.7 mouse macrophage-like cells, which are well-known to form osteoclasts, were purchased from the American Type Culture Collection and Tissue (Manassas, Va.). MC3T3 and RAW 264.7 cells were grown in Dulbecco's Modified Eagle Medium supplemented with 10% fetal bovine serum, 100 μ/mL penicillin, […] streptomycin, and 0.1% fungizone (amphotericin B). […]\nAfter treating the cells with zoledronate at concentrations of 0, 5, 10, 50, and 100 μM for 24 hours, the cells were pelleted by centrifugation and resuspended with 5 mL of PBS. Cell number was measured, and the cells were centrifuged and resuspended in binding buffer (A.G. Scientific, San Diego, Calif.) to a final cell density of 5×10^5 cells/mL. […] Monoparametric cytograms of annexin V-FITC fluorescence (FL1) versus number of events were created using the CellQuest program gating for living cells and excluding dead cells on the basis of their propidium iodide uptake.",
  "data": [
    {"substance": "zoledronate", "values": [
      {"measurement": "cytotoxic effects on osteoclast precursors and osteoblasts", "result": "differential cytotoxic effects"}
    ]}
  ]
}
